Results taken from patent US8541427B2, “Phenyl-substituted 2-imino-3-methyl pyrrolo pyrimidinone compounds as BACE-1 inhibitors, compositions, and their use” (Merck, Sharp & Dohme, Corp., priority 2008, dated 2013).

By UniProt entry, the sequences of proteins in these tests, tags left out. Residues count along the entry.
UniProt P56817, 75-416: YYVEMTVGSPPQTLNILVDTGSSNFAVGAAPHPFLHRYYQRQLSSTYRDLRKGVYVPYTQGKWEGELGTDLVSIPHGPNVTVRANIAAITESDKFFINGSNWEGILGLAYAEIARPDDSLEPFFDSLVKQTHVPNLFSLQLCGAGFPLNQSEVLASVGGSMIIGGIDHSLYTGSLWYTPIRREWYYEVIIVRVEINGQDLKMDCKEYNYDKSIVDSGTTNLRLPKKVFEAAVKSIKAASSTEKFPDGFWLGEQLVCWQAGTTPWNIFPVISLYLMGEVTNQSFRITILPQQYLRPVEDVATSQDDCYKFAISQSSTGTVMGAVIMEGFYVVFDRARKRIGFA
UniProt P56817, 46-501: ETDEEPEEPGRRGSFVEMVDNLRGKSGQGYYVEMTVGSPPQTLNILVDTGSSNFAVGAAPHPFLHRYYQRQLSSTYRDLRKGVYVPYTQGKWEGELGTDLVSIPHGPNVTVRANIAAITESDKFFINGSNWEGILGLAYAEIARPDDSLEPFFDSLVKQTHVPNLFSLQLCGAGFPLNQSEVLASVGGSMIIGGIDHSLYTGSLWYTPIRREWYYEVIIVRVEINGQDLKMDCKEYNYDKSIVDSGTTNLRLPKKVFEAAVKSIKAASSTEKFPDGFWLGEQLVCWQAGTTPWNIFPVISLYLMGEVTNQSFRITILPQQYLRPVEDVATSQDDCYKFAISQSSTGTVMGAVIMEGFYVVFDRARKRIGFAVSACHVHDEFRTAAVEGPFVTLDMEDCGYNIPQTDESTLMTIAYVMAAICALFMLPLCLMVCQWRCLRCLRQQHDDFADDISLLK

Columns and labels:
[1] = target: soluble human BACE1 catalytic domain (Homo sapiens (Human), UniProt P56817); test: BACE1 HTRF FRET Assay; type: biochemical; details: Ki calculated from IC50 with Cheng-Prusoff equation;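 further: cleavage of a quenched APP Swedish mutant peptide (QSY7 quencher, Europium donor) measured as rise in 620 nm fluorescence after 1.5 h at 30 °C, inhibition suppresses signal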
[2] = target: BACE1 (Aβ40 in HEK293-APPswe/lon cells) (Homo sapiens (Human), UniProt P56817); test: BACE Inhibitor Whole Cell IC50 Determination Using HEK293-APPswe/lon Cells (Aβ40); type: cell-based; details: 4 hours

Compound: CCOc1nc(N2C[C@H]3C(=O)N(C)C(N)=N[C@@]3(c3ccccc3)C2)nc(C)c1F (racemic) [4 racemic]
- pKi [1]: 7.23
- pIC50 [2]: 6.49

pIC50, pKi: −log10 of the molar value.
